Reference: ChEMBL document CHEMBL2169795, “Macrocyclic peptoid-Peptide hybrids as inhibitors of class I histone deacetylases” (ACS Med Chem Lett, 2012)

How the values were obtained:
Histone deacetylase = test: Inhibition of HDAC in human HeLa cell extracts by fluorimetric assay; assay type: protein assay
[1] = biological target: Histone deacetylase 3/Nuclear receptor corepressor 2 (HDAC3/NCoR2) (Homo sapiens, UniProt O15379); test: Inhibition of human recombinant HDAC3/NCoR2 using Ac-Lys(Ac)-7-amino-4-methylcoumarin as substrate after 30 mins by trypsin-coupled fluorogenic assay; assay type: protein-complex assay
Histone deacetylase 1 = Histone deacetylase 1 (Homo sapiens, UniProt Q13547); test: Inhibition of human recombinant HDAC1 using Ac-Lys(Ac)-7-amino-4-methylcoumarin as substrate after 30 mins by trypsin-coupled fluorogenic assay

CCC(=O)CCCCC[C@@H]1NC(=O)[C@H](C)N(C)C(=O)C[C@H](CC(C)C)NC(=O)[C@H](Cc2c[nH]c3ccccc23)NC1=O
IC50 (Histone deacetylase): 40 nM
IC50 [1]: 30 nM
IC50 (Histone deacetylase 1): 30 nM
